Legend:
CA IX [1] = biological target: T1, CA IX (Homo sapiens, UniProt Q16790); assay: Stopped-flow CA-catalysed CO2 hydration inhibition assay; type: biochemical; settings: for logKi(CA IX): logarithm of Ki (Ki in nM), mean of three determinations; for pKi (exp.): sulphonamides with IDs C…, from Ki (nM)
[2] = RP-LC chromatographic lipophilicity (logkw); type: physicochemical; settings: chromatographic lipophilicity from gradient RP-LC, Luna RP-C18, water/acetonitrile with 0.1% formic acid, 30 °C
CA IX [3] = biological target: T1, CA IX; assay: MALDI-TOF/TOF-MS of CA IX-inhibitor complexes; type: binding; settings: from MALDI spectra of CA IX-inhibitor mixtures

Compound	logKi(CA IX) (CA IX [1])	pKi (exp.) (CA IX [1])	logkw [2]	number of inhibitor molecules binding to CA IX (CA IX [3])
CCCCc1c(C)nn(-c2ccncc2S(N)(=O)=O)c1C	1.687	1.687	2.800	–
Cc1cc(C)n(-c2ccncc2S(N)(=O)=O)n1	1.394	–	1.680	–
CSc1nc(N)n(-c2ccncc2S(N)(=O)=O)n1	1.816	–	1.100	–
Cc1nn(-c2ccncc2S(N)(=O)=O)c(C)c1C	1.364	–	2.090	–
CCOC(=O)CCc1c(C)nn(-c2ccncc2S(N)(=O)=O)c1C	1.290	–	2.440	–
NS(=O)(=O)c1cnccc1N1CCN(c2ccccc2)CC1	2.093	2.093	3.010	one
CCc1cc(CC)n(-c2ccncc2S(N)(=O)=O)n1	1.501	–	2.340	–
NS(=O)(=O)c1cnccc1N1CCN(c2ccc(Cl)cc2)CC1	2.130	–	4.530	–
NS(=O)(=O)c1cnccc1N1CCN(Cc2ccccc2)CC1	1.654	–	1.270	two
